Laboratory results as given in patent US8067379B2, “Sulfur compounds as inhibitors of hepatitis C virus NS3 serine protease” (Schering Corporation, priority 2004, dated 2011).

The chains behind the UniProt entries cited, without tags or fusion partners. Residues count along the entry.
UniProt P27958, 1027-1657: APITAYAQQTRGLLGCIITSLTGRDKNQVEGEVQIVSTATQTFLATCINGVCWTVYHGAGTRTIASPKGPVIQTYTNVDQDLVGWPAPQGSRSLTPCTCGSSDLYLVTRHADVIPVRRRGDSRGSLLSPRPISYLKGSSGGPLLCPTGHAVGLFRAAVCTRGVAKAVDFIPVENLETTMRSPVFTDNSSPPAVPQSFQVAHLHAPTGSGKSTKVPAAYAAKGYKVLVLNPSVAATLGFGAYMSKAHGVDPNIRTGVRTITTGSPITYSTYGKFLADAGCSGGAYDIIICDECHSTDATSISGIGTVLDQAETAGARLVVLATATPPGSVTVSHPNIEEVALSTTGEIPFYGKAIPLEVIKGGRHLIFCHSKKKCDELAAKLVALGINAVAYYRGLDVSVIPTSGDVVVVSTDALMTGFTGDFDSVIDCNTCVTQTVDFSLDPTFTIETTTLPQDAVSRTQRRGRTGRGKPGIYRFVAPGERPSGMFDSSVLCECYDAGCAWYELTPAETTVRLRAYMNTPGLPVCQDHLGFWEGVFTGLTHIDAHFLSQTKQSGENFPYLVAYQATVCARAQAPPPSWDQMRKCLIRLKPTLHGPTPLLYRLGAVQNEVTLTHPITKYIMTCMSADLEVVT
UniProt P27958, 1658-1711: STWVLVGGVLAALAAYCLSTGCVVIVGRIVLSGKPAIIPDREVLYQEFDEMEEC

Target: Recombinant heterodimeric HCV NS3/NS4A protease (strain 1a) (Hepatitis C virus genotype 1a, UniProt P27958)
Experiment: Spectrophotometric assay for HCV serine protease inhibitory activity (chromogenic ester substrates)
Assay type: biochemical
Conditions: Table 3A; class symbols; read-out: Ki* Range

| Structure (SMILES) | Ki |
| --- | --- |
| CCC[C@H](NC(=O)[C@@H]1CC2(CN1C(=O)[C@@H](NC(=O)NC1(CS(=O)(=O)C(C)(C)C)CCCCC1)C1(C)CCCCC1)SCCCS2)C(=O)C(=O)NC1CC1 [Compound 812] | < 75 nM |
| CCCC[C@H](NC(=O)[C@@H]1[C@@H]2[C@H](CN1C(=O)[C@@H](NC(=O)NC1(CS(=O)(=O)C(C)(C)C)CCCCC1)C(C)(C)C)C2(C)C)C(=O)C(=O)NCCC [Compound 883-cj] | < 75 nM |
